{"source": "patent US20240024320A1", "about": "“METHODS OF TREATING CANCER WITH A COMBINATION OF TUCATINIB AND AN ANTI-PD-1/ANTI-PD-L1 ANTIBODY” (Seagen Inc., priority 2020, published 2024)", "tested_on": "Fo5 tumors", "assay": "Fo5 trastuzumab-resistant HER2-positive murine tumor model: tumor growth and survival", "set-up": "species or system FVB mice", "conditions": "mouse, in vivo"}
{"substance": "trastuzumab: anti-HER2 antibody given by intraperitoneal injection, 30 mg/kg loading dose then 15 mg/kg weekly", "values": [{"measurement": "tumor volume and survival (validation of trastuzumab resistance)", "value": "resistance was validated"}]}
